Results from patent US7273713B2, “Methods of modulating mitochondrial NAD-dependent deacetylase” (The Regents of the University of California, priority 2002, dated 2007).

Sequences of proteins named here, by UniProt entry; tags and fusion partners are left off. A change or cut given only in a name is not applied to a line headed by its entry.
UniProt Q9UBN7: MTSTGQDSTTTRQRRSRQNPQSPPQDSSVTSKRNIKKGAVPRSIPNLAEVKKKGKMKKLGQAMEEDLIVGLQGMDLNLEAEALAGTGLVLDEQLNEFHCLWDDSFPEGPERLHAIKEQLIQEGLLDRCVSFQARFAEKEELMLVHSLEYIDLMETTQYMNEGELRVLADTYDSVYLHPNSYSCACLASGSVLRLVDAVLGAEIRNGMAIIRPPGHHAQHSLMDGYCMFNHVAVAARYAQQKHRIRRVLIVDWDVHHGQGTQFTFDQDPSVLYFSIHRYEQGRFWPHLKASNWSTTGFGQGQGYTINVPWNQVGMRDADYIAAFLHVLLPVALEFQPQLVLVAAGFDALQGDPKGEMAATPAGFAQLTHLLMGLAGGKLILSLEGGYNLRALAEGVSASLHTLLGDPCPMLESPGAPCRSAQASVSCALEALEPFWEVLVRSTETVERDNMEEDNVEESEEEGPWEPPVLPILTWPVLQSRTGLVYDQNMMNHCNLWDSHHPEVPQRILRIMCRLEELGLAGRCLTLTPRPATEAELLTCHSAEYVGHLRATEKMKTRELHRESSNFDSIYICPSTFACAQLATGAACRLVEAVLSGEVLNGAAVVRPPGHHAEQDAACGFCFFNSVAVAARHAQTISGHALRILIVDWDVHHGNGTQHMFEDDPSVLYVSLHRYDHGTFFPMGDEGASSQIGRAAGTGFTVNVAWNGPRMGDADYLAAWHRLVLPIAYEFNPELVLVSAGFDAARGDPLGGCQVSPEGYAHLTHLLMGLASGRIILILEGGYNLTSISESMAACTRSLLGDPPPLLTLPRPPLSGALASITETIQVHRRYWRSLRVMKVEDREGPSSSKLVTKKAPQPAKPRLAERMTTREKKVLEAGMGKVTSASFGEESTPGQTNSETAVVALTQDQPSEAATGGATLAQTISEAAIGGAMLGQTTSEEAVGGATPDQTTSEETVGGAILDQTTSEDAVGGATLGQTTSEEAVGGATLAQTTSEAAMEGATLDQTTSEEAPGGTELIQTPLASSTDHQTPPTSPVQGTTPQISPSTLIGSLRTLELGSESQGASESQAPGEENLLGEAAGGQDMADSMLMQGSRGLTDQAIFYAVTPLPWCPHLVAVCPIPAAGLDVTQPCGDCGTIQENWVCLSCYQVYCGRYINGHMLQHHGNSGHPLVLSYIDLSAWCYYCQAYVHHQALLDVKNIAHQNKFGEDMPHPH

Biological target: HDAC6 (Homo sapiens, UniProt Q9UBN7)
Assay: In vitro deacetylase assay on HDAC6
Details: TSA, same conditions as the mitochondrial lysate assay

trichostatin A
effect on activity of the class II HDAC, HDAC6: significant inhibition
